From patent EP3996708B1, “PHARMACEUTICAL COMPOSITIONS COMPRISING INHIBITORS OF OPA1 FOR USE IN THE TREATMENT OF CANCER” (priority 2019, dated 2021)

System: MDA-MB-231 cells
Assay: Scratch wound migration assay
Type: cell-based, human
Details: 20 µM MYLS22, 6 hours; compared with around 50% reduction by siRNA silencing of OPA1
Experimental: Scratch wound migration assay: HUVEC and MDA cells were cultured in 48-well plates in 800 µl of EGM2 for 48 hours and were wounded with the head of 200 µl tips.
MDA-MB-231 cells, a human metastatic breast adenocarcinoma cell line were used for measuring if MYLS22 could block MDA-MB-231 migration, an essential feature of cancer metastatization that in these cells is controlled by mitochondrial morphology (Zhao, J., Zhang, J., Yu, M., Xie, Y., Huang, Y., Wolff, D.W., Abel, P.W., and Tu, Y. (2012). Mitochondrial dynamics regulates migration and invasion of breast cancer cells. Oncogene 32, 4814). When OPA1 was blocked genetically, by efficient siRNA-mediated silencing of OPA1 migration was reduced by around 50% in a classic scratch assay.

Cc1nn(-c2ccccc2)c2sc(C(=O)Nc3c(C)n(C)n(-c4ccccc4)c3=O)cc12 [MYLS22, N-(1,5-dimethyl-3-oxo-2-phenyl-2,3-dihydro-1H-pyrazol-4-YL) 3-methyl-1-phenyl-1H-thieno[2,3-c]pyrazole-5-carboxamide]
inhibition of cell migration: very similar inhibition
